The text below walks through data of patent US10280198B2, “Therapeutic agents for reducing parathyroid hormone levels” (KAI PHARMACEUTICALS, INC., priority 2009, dated 2019).

Each structure is given as a SMILES string. Like-named read-outs stand apart in the source and are kept apart here.

This assay addresses T1, human calcium-sensing receptor (CaSR) (Homo sapiens, UniProt P41180).
T1 construct: expressed in transfected cells; host or cells: HEK 293T cells, transiently transfected (lipofectamine 2000); in some cases HEK293 cells stably transfected
T1 sequence (P41180 20-1078): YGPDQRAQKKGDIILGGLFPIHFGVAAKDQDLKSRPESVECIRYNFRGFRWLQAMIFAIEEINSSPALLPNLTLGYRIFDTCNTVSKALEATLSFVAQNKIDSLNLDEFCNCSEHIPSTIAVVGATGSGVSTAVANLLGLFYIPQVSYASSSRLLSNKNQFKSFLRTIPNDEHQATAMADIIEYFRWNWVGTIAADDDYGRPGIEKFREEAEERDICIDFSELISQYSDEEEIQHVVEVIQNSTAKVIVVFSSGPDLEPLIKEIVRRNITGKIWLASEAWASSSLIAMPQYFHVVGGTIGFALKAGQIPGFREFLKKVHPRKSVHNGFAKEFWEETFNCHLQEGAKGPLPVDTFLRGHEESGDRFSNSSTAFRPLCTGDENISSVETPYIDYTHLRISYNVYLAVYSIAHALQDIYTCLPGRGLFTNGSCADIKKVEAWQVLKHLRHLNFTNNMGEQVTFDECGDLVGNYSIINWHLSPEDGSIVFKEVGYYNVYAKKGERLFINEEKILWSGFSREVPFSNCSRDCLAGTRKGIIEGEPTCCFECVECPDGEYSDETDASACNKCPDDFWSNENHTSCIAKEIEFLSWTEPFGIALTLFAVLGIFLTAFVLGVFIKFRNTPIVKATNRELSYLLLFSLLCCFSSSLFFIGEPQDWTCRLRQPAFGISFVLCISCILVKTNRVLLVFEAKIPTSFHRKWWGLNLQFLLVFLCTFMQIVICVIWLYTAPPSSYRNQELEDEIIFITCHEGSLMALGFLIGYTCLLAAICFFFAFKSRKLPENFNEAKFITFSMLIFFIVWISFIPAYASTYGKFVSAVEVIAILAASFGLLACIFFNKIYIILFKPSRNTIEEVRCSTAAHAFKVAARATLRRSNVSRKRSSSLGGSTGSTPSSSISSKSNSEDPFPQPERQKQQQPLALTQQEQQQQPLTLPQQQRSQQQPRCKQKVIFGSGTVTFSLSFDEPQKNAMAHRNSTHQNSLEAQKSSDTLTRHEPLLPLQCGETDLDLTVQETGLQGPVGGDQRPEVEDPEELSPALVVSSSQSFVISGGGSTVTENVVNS
Kind of assay: In vitro cell assay in HEK-293 expressing the human calcium-sensing receptor (IP1 production). The format is cell-based. The procedure:
The activity of a variety of peptides and conjugates was tested against the human CaSR. These studies were conducted by measuring IP1 production in HEK293 cells that express the human CaSR. Each peptide was tested in eight different concentrations, in duplicates, to establish a dose response curve. Curve fitting was performed using GraphPad Prism. In Table 5, and throughout the specification, residues provided in capital letters are L-amino acids, while lower case letters indicate D-amino acids. “Ac” indicates an acetyl capping group, “NH2” indicates an amide capping group, “Ac-bAla” is an acetylated beta-alanine, “GSH” indicates reduced glutathione, “GS” indicates oxidized glutathione, “PEG” refers to polyethylene glycol, “PEG2” and “PEGS” refer to polyethylene glycol moieties of 2 kDa and 5 kDa, respectively, and “Mpa” refers to mercaptopropionic acid.
The day after, these cells were transfected with human CaSR receptor using lipofectamine 2000 transfection reagent 24 hrs post transfection, cells were seeded in 384 well plates at 8,000 cells/well. […] In some cases, EC50 values were determined by measuring inositol monophosphate production in the HEK293 cells, stably transfected with the human calcium-sensing receptor (see Table 1).
Cells were incubated with compounds at various concentrations (1 mM or 300 μM as the highest and further ½ log serial dilutions) at 37° C. for 1.5 hrs before reaction termination. […] In brief, incubation with the compound was terminated by sequentially adding D2 labeled-IP1 and cryptate-labeled anti-IP1 in lysis buffer and further incubating at room temperature for 60 minutes. […] Non-transfected 293 cells were used as negative control.
IP1 concentrations were calculated from standard curves (generated with Graph Pad Prism ver. 4) using known concentrations of IP1 standards.

As to `CC(=O)N[C@H](CS)C(=O)NCC(=O)N[C@H](CCCNC(=N)N)C(=O)N[C@H](CCCNC(=N)N)C(=O)N[C@H](CCCNC(=N)N)C(=O)NCC(=O)N[C@H](CCCNC(=N)N)C(N)=O` [SEQ ID NO: 42, Ac-cGrrrGr-NH2], under “human CaSR, HEK293”, the “fold decrease in potency relative to Ac-carrrar-NH2 (SEQ ID NO:26)” value is recorded as under 8 fold.

Consider `N=C(N)NCCC[C@@H](NC(=O)[C@@H](CCCNC(=N)N)NC(=O)[C@@H](CCCNC(=N)N)NC(=O)[C@@H](CCCNC(=N)N)NC(=O)[C@@H](CCCNC(=N)N)NC(=O)[C@@H](CCCNC(=N)N)NC(=O)[C@H](N)CSSC[C@@H](N)C(=O)N[C@H](CCCNC(=N)N)C(=O)N[C@H](CCCNC(=N)N)C(=O)N[C@H](CCCNC(=N)N)C(=O)N[C@H](CCCNC(=N)N)C(=O)N[C@H](CCCNC(=N)N)C(=O)N[C@H](CCCNC(=N)N)C(N)=O)C(N)=O` [SEQ ID NO: 51], for which the EC50 (usually the concentration giving half of the maximal effect) came out at 0.44 µM.

With `CC(=O)N[C@H](CS)C(=O)N[C@H](CCCNC(=N)N)C(=O)N[C@H](CCCNC(=N)N)C(=O)N[C@H](CCCNC(=N)N)C(=O)N[C@H](CCCNC(=N)N)C(N)=O` [SEQ ID NO: 4, Ac-crrrr-NH2], the EC50 (Table 5, IP1 production in HEK293 cells expressing human CaSR, eight concentrations in duplicate, read-out: EC50 in CaSR in vitro assay) was 16 µM.
